The source of these data is patent publication US6768024B1, “Triamine derivative melanocortin receptor ligands and methods of using same” (Lion Bioscience AG, priority 2000, dated 2004).

By UniProt entry, the sequences of proteins in these tests, tags left out.
UniProt P41968, whole entry: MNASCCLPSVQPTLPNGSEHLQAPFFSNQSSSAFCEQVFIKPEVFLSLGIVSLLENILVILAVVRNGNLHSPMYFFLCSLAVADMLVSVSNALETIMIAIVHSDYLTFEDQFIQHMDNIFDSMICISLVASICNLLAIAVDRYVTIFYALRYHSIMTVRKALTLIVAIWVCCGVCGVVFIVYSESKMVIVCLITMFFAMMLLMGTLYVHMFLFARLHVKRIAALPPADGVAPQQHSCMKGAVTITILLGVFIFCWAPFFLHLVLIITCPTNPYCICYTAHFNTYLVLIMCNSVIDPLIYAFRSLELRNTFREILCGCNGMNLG
UniProt Q01726, whole entry: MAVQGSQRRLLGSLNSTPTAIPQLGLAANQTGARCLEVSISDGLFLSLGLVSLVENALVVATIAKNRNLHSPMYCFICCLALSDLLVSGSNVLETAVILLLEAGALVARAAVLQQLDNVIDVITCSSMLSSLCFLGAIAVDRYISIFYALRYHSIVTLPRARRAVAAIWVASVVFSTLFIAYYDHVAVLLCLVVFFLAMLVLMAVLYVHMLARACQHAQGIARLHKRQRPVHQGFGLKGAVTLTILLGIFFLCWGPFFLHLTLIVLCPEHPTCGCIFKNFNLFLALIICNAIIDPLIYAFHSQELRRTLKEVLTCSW
UniProt P32245, whole entry: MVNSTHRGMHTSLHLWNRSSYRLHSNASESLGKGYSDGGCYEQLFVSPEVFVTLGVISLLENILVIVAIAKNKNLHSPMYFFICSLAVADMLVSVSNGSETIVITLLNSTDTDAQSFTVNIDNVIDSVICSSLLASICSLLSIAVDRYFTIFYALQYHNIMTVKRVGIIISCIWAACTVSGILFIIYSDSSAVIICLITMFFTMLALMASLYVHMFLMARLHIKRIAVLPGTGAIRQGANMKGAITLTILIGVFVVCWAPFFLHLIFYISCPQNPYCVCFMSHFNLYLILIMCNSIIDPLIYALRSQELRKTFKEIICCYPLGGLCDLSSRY
UniProt P33032, whole entry: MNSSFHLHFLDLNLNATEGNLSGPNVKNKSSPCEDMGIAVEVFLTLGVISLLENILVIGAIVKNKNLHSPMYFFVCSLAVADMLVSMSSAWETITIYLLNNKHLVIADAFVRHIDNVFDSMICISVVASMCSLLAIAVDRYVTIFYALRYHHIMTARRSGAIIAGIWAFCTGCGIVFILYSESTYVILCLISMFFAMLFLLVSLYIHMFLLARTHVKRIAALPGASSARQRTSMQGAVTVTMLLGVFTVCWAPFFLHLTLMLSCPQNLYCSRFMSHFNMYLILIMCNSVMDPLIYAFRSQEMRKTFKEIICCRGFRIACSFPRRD

In test [1] the target is hMC3 (Homo sapiens, UniProt P41968). The experiment in a line: Melanocortin receptor binding assay, competition with 125I-HP 467. The conditions noted are these: read-out: MC-3 IC50; 50% inhibition of binding of 125I-HP 467; HEK-293 membranes. From the text: (§1) HEK-293 cell lines were transfected with the human melanocortin receptors hMC1, hMC3, and hMC4 were obtained from Dr. Ira Gantz, as described in Gantz, I. et al., Biochem. Biophys. Res. Comm., 3:1214-1220 (1994); Gantz et al., J. Biol. Chem., 268:8246-8250 (1993); Gantz et al., J. Biol. Chem., 268:15174-15179 (1993); and Haskell-Leuvano et al., Biochem. Biophys. Res. Comm., 204:1137-1142 (1994).
(§2) Vectors for construction of an hMC-5 expressing cell line were also obtained from Dr. Ira Gantz, as described in the above references, and a line of HEK-293 cells expressing hMC-5 was constructed. HEK-293 cell lines were maintained in DMEM containing 25 mM HEPES, sodium pyruvate, 10% Cosmic Calf serum, 100 units/ml penicillin, 100 μg/ml streptomycin, 2 mM glutamine, non-essential amino acids, vitamins and 0.2 mg/ml G418 to maintain selection.
(§3) HEK-293 cells stably expressing the MC Receptors were grown to confluency in 175 cm^2 flasks. 3 flasks were washed in 30 ml room temperature phosphate buffered saline (Cellgro) per flask, and harvested using a rubber scraper in 5 ml ice-cold PBS per flask. The cells were combined into one test tube, homogenized using a Polytron homogenizer (3 bursts of 10 seconds) and centrifuged at 32,000× g for 20 min at 4° C.
(§4) Membranes were washed as follows: the pellet obtained after centrifugation was resuspended in 20 ml ice-cold hypotonic buffer, (20 mM Tris-HCl, 5 mM EDTA, pH 7.7 at 4° C.), dispersed using a 8 strokes in a teflon/glass homogenizer and recentrifuged as decribed above. The final pellet was resuspended in 3 ml ice cold suspension buffer (20 mM HEPES, 10 mM NaCl, 1.26 mM CaCl2, 0.81 mM MgSO4, 0.22 mM KH2PO4, 10% w/v Sucrose, pH 7.4), giving a protein concentration of approx. 2 mg/ml. Protein concentration was measured by a BCA assay (Pierce), using bovine serum albumin as standard. The crude membrane preparation was aliquoted, flash-frozen in liquid nitrogen and stored at −80° C.
(§5) Before use in assays, each membrane preparation was tested and the protein concentration to give 3000 counts of total binding is determined. Typically, 6 μg/ml for MC-1, 1.5 μg/ml for MC-3, 1.5 μg/ml for MC-4, and 1 μg/ml for MC-5 give 3000 counts in the assay.
(§6) Binding assays were performed in a total volume of 250 μl. Triamines and other compounds were dissolved in DMSO and diluted in PBS to give no more than 2.5% DMSO (0.25% final in the assay), and 25 μl of test compound is added to each tube. 50,000 dpm of ^125I labeled HP 467 (Ac-Nle-Gln-His-(p(I)-D-Phe)-Arg-(D-Trp)-Gly-NH2, with the iodo group radioactively labeled; see WO 99/21571)(in 25 μl) prepared in 50 mM Tris pH 7.4, 2 mg/ml BSA, 10 mM CaCl2, 5 mM MgCl2, 2 mM EDTA were added to each tube. ^125I-HP 467 was custom labeled by Amersham to a specific activity of 2000 Ci/mmol. Membranes were thawed and resuspended in ice-cold suspension buffer without sucrose at the protein concentration determined above, and 200 μl were added to each tube. Assays were incubated for 90 minutes at room temperature.
(§7) GF/B filter plates (Packard Instrument Co.) were prepared by soaking for at least one hour in 0.5% v/v polyethyleneimine. Assays were filtered using a Brandel 96-well cell harvester. The filters were washed four times with cold 50 mM Tris, pH 7.4. Filter plates were dehydrated for 2 hours and 35 μl of Microscint (Packard Instrument Co.) added to each well. Filter plates were counted using a Packard Topcount and data analyzed in MDL Screen (MDL Information Systems, Inc.).
(§8) Various triamine derivatives were tested for in vitro binding activity to HEK 293 cells expressing MCR-1, MCR-3, MCR-4 or MCR-5 as described in Example II. Tables 1 to 3 above show the IC50 values, the concentration giving 50% inhibition of binding of ^125I-HP 467, for various triamine derivatives.

Test [2] has as its target hMC1 (Homo sapiens, UniProt Q01726). Described as above. As to conditions: read-out: MC-1 IC50; 50% inhibition of binding of 125I-HP 467; HEK-293 membranes.
Excerpt: as §1, §2, §3, §4, §5, §6, §7, §8

Test [3] deals with hMC4 (Homo sapiens, UniProt P32245). The test is described as above. As to conditions: 50% inhibition of binding of 125I-HP 467, HEK-293 membranes; for IC50: read-out: MC-4 IC50.
Excerpt: as §1, §2, §3, §4, §5, §6, §7, §8

Test [4] addresses hMC-5 (Homo sapiens, UniProt P33032). The description is as above. As to conditions: for IC50: read-out: MC-5 IC50, 50% inhibition of binding of 125I-HP 467, HEK-293 membranes.
Excerpt: as §1, §2, §3, §4, §5, §6, §7, §8

Test [5] concerns the target MCR-3 (Homo sapiens, UniProt P41968). The experiment in a line: cAMP assay for melanocortin receptor agonism. The conditions noted are these: 50% of maximal cAMP production; HEK 293 cells. Here is the method: (§9) HEK 293 cells expressing MCR-1, MCR-3, MCR-4 and MCR-5 were used (see Example II). Cells were plated at 20,000 cells per well in a 96-well plate coated with collagen Biocoat (Becton Dickinson). The next day, cells were pretreated with 75 μl of 0.4 mM 3-isobutyl-1-methylxanthine (IBMX) in low serum medium containing DMEM, 25 mM HEPES, non-essential amino acids, vitamins, 100 units/ml penicillin, 100 μg/ml streptomycin and 0.1% COSMIC CALF SERUM. IBMX is an inhibitor of cAMP phosphodiesterase. The pretreatment was carried out for 10 min at 37° C.
(§10) Following pretreatment, 25 μl of diluted triamine derivative was added to the wells, and cells were incubated for 15 min at 37° C. Cells were lysed by adding 25 μl saponin lysis buffer and incubating 2 to 5 min. Plates were covered and stored at −20° C.
(§11) cAMP concentration was determined by ELISA. Briefly, 96 well ELISA plates were coated with goat anti-cAMP antibody (BabCo, Berkeley, Calif.) in PBS for 12 to 72 hr at 4° C. 50 μl of sample was mixed with 50 μl of cAMP ELISA buffer containing 1% bovine serum albumin, 10% heat inactivated donor horse serum, 1% normal mouse serum and 0.05% TWEEN-20 in PBS, and the diluted sample was added to the coated ELISA plate. Standards of known concentrations of cAMP were added to separate wells. 25 μl of 16 ng/ml cAMP-conjugated horse radish peroxidase (HRP) (cAMP-HRP) was added to each well, and the plates were […] at room temperature. Plates were washed and the binding of cAMP-HRP was detected with 3,3′,5,5′-tetramethylbenzidine (TMB) and hydrogen peroxide using standard immunoassay procedures.
(§12) Various triamine derivatives were tested for their ability to activate MC receptor by measuring cAMP as described in Example III. Tables 4 and 5 show the EC50 values, the effective concentration for achieving 50% of maximal cAMP production, for various triamine derivatives administered to HEK 293 cells expressing MCR-1, MCR-3, MCR-4 or MCR-5.

The target in test [6] is MCR-5 (Homo sapiens, UniProt P33032). The experiment in a line: cAMP assay for melanocortin receptor agonism. As to conditions: read-out: MC-5 IC50 (Tables 4 and 5; text: EC50); 50% of maximal cAMP production; HEK 293 cells. Here is the method: as §9, §10, §11, §12
Test [7] has as its target MCR-4 (Homo sapiens, UniProt P32245). The test is described as follows: cAMP assay for melanocortin receptor agonism. As to conditions: read-out: MC-4 IC50 (Tables 4 and 5; text: EC50); 50% of maximal cAMP production; HEK 293 cells. How it is done: as §9, §10, §11, §12
The target of test [8] is MCR-1 (Homo sapiens, UniProt Q01726). The experiment in a line: cAMP assay for melanocortin receptor agonism. As to conditions: read-out: MC-1 IC50 (Tables 4 and 5; text: EC50); 50% of maximal cAMP production; HEK 293 cells. How it is done:
as §9, §10, §11, §12

Each structure is given as a SMILES string.

For the molecule `N=C(N)NCCC[C@@H](CN)NC[C@H](Cc1ccc(I)cc1)NCCc1cc(F)cc(F)c1`, the IC50 in test [1] is 0.8 µM; in test [2] it was 0.33 µM; in test [3], 1.8 µM; in test [4] it was 0.7 µM.

Take `CCOc1ccc(C[C@@H](CN[C@H](CN)Cc2ccc([N+](=O)[O-])cc2)NCCc2ccc(Cl)cc2)cc1`: the IC50 in test [1] came to 4.1 µM; in test [2], 4 µM; in test [3] it was 5.2 µM; in test [4] it was 0.6 µM.

`CCOc1ccc(CCN[C@H](CN[C@H](CN)CCCNC(=N)N)Cc2ccc(I)cc2)cc1`: the IC50 was found to be 1.34 µM in test [1], 0.27 µM in test [2], 1.2 µM in test [3] and 0.07 µM in test [4].

As for `CCOc1ccc(C[C@@H](CN[C@H](CN)CCCNC(=N)N)NCCc2ccc(C(F)(F)F)cc2)cc1`, the IC50 in test [1] came out at 1.09 µM; in test [2], 0.42 µM; in test [4] it was 0.04 µM. For the same molecule, in test [3], the “MC-4 IC50” value is given as “No fit”. Moreover, the “specificity for at least one MC receptor over another MC receptor” value in test [4] (binding, receptors not given) is on record as “about 10 fold”.

As to `CCOc1ccc(C[C@@H](CN[C@H](CN)CCCNC(=N)N)NCCc2ccc([N+](=O)[O-])cc2)cc1`, the IC50 in test [1] came to 14.3 µM; in test [2] it was 0.25 µM; in test [3] it was 19.6 µM; in test [4], 0.46 µM.

On to `N=C(N)NCCC[C@@H](CN)NC[C@H](Cc1ccc(I)cc1)NCCc1ccc(Cl)cc1`, for which, in test [5], the “MC-3 IC50 (Tables 4 and 5; text: EC50)” value is recorded as “No fit”. Moreover, the figures for the EC50 in test [6], in test [7] and in test [8] were 0.15 µM, 0.3 µM and 0.6 µM, respectively.

For `CCOc1ccc(C[C@@H](CN[C@H](CN)CCN)NCCc2ccc(Cl)cc2)cc1`, the IC50 in test [1] worked out at 2.35 µM; in test [2] it was 6.35 µM; in test [3] it was 5.6 µM; in test [4], 0.7 µM.
